From US5811465A, “Composition, device, and method for electrotransport agent delivery” (priority 1997, dated 1998)

Conditions: 10 mM enhancer in 20% Ethanol; pH 7.30 (ODAA), 7.00 (A3); control = 1.00; 100 μA/cm^2, about 32° C.
Description: Human cadaver skin was prepared by first removing about 1 mm thick skin samples with an electric dermatome in the form of strips. The skin strips were placed in polyethylene bags, sealed and placed in a refrigerator at about 4° C. for temporary storage. Prior to use in the electrotransport cell, the skin strips were placed in one-liter beakers containing water at 60° C. for about 90 seconds with gentle stirring. Then, the skin strips were removed and placed onto the absorbent side of a piece of BENCHKOTE™ fabric with the dermis side down. Using flat tipped tweezers to retain the dermis, the epidermis was removed from each strip with a round-tip spatula. Each epidermis, stratum comeum side up, was transferred to a PYREX™ glass tray which was filled with water. […]
Dulbecco's phosphate buffered saline (about 0.15M NaCl with minor amounts of other ions, pH 7.0) was placed in the anodic receptor compartment 44. The skin resistance was calculated from the voltages applied by the galvanostat according to Ohm's law, ie, Rskin =ΔV/i, where ΔV is the potential applied by the galvanostat, and i is the applied current, 126 microamps.
The system was maintained at about 32° C. by a Haake Model D1 heating block/water bath. The cell voltage was monitored over the entire procedure, and then averaged. The skin resistance was calculated from Ohm's law as described above using the measured ΔV. […]

Substance: octyl-N,N-dimethyl-dodecylamino acetate [ODAA]
- Normalized Ketoprofen Flux (after 5 hrs): 1.56
